Here are results for one substance from patent EP4114474B1, “HEMOSTATIC AGENT” (Industria Farmaceutica Nova Argentia S.r.l., priority 2020, dated 2021).

For the data set the following is noted: forms neutral aqueous solutions.

As to ferric ammonium citrate, the “pH of aqueous solutions” value is listed as roughly 7.
